For 1 molecule, Kd results are on record in paper PMC13623127 (PLOS One, 2026).

Broadly, the Kd is a measure of binding affinity in units of concentration.

The target of this test is T1, activation-inducible TNF-related ligand (TNF ligand superfamily member 18), recombinant soluble form (human, UniProt Q9UNG2 49-177).
T1 construct: also called AITRL
T1 sequence (looked up): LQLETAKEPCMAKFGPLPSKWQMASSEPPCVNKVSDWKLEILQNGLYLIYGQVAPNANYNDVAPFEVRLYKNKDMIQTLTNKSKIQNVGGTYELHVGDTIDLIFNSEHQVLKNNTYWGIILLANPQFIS
Put plainly: SPR; TNFSF member immobilised on ProteOn GLH chip by amine coupling (up to 5,000-14,500 RU); S100 analyte 62.5 nM to 16 uM, 300 s at 30 uL/min; 25°C; 10 mM HEPES-NaOH, 150 mM NaCl, 0.05% TWEEN 20, 1 mM CaCl2, pH 7.4; heterogeneous ligand, one-site or two-state model; constants averaged over analyte concentrations (SD, n = 2-9). As to conditions: both partners purified. (In general: Surface plasmon resonance follows binding to a sensor surface in real time, without labels.)

B1: recombinant tag-free human S100A1 (natural protein, UniProt P23297 1-94, looked up)
chain: MGSELETAMETLINVFHAHSGKEGDKYKLSKKELKELLQTELSGFLDAQKDVDAVDKVMKELDENGDGEVDFQEYVVLVAALTVACNNFFWENS
notes: S100A1, human, recombinant, tag-free; Tag-free
As for B1, the dissociation constant (Kd) was found to be 398 nM.
